Consider 1 compound from article PMC4404319 (ACS Chemical Neuroscience, 2015).

The subject of this data set is Caco-2 / P-gp. In words: Caco-2 two-way permeability / P-gp substrate. For orientation: Caco-2 cells form a polarised layer with tight junctions and transporters.

“Also recorded” adds a separate entry of the source.

For the compound `CN1CCN(c2cc(-c3ccncc3)c(-c3ccc4ccccc4c3)nn2)CC1` [MW150, 6-(4-Methylpiperazin-1-yl)-3-(naphthalen-2-yl)-4-(pyridin-4-yl)pyridazine], the Caco-2 permeability classification entry is on record as “high cell permeability; also recorded: highly permeable”. Moreover, the P-gp substrate status entry (effect of 1 μM valspodar on bidirectional flux) is on record as “not a substrate; also recorded: not P-gp substrate”.
